Assay results taken from US10377755B2, “BCL-2 inhibitors” (Newave Pharmaceutical Inc., priority 2016, dated 2019).

The chains behind the UniProt entries cited, without tags or fusion partners.
UniProt P10415, whole entry: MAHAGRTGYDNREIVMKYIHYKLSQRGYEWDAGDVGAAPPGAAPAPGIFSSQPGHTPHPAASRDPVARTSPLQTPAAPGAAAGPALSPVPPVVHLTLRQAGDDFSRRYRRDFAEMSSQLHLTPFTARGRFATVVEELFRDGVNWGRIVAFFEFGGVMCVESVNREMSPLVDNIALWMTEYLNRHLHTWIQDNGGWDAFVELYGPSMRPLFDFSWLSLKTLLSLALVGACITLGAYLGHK

Key:
Bcl-2 [1] = target: T1, Bcl-2 (Homo sapiens (Human), UniProt P10415); conditions: cited from earlier work
Bcl-2 [2] = target: T1, Bcl-2; test: Bcl-2 competition binding (fluorescence polarization) assay; conditions: BH3 peptide, 3 hours incubation at room temperature
Description: Biological Example 1: Bcl-2 Competition Binding (Fluorescence Polarization) Assay
This binding assay was performed in 96-well plate and with each assay contained 15 and 30 nM of labeled peptide and purified Bcl-2 protein (purchased from R&D Systems, Inc). The assay buffer contained 20 mM Hepes (pH 7.0), 50 mM KCl, 5 mM MgCl2, 20 mM Na2MoO4, 0.1 mg/ml Bovine Gamma Globulin and 0.01% NP40. Compounds were diluted in DMSO and added to the final assay with concentration range from 20 uM to 2 nM. The polarization degree (mP) value was determined by BioTek Synergy II with background subtraction after 3 hours of incubation at room temperature. IC50 was calculated using Prism software with sigmoidal dose-response curve fitting. ABT-737 was used as reference compound. Such assays, carried out with a range of doses of test compounds, allow the determination of an approximate IC50 value.

IC50 (Bcl-2 [2]): < 10 nM
SMILES: CC1(C)CCC(c2ccc(Cl)cc2)=C(CN2CCN(c3ccc(C(=O)NS(=O)(=O)c4ccc(N[C@H](CCN5CCOCC5)CSc5ccccc5)c(S(=O)(=O)C(F)(F)F)c4)cc3)CC2)C1 [ABT-263]
Ki (Bcl-2 [1]): ≤ 1 nM
